{
  "source": "patent US12582657B2",
  "about": "“Combination therapy including a KRAS G12C inhibitor and one or more additional pharmaceutically active agents for the treatment of cancers” (Amgen Inc., priority 2018, dated 2026)",
  "test_system": "SW837 (colon)",
  "assay": "In vitro two-way combination matrix, growth inhibition, Loewe synergy score",
  "data": [
    {"substance": "cetuximab: EGFR antibody, Erbitux", "values": [
      {"measurement": "single agent activity", "result": "lack of cetuximab activity"}
    ]}
  ]
}
